This is an account of results in article PMC2199025 (The Journal of Experimental Medicine, 1997).

Molecules are shown by their SMILES.

What is called IC50 is the concentration needed to halve the response being measured. Low values mean inhibition by little substance, high ones a need for much substance.

In this experiment the target is H-2K^b (Mus musculus, UniProt P01901). Description: Peptide competition cytotoxicity assay. The format is cell-based, murine.

Regarding `CC(C)C[C@H](NC(=O)[C@H](C)NC(=O)[C@@H]1CCCN1C(=O)[C@H](Cc1ccc(O)cc1)NC(=O)[C@H](CC(N)=O)NC(=O)CNC(=O)[C@@H]1CCCN1C(=O)[C@H](C)NC(=O)[C@@H](N)Cc1ccccc1)C(=O)O` [SV9: FAPGNYPAL, reference compound], the IC50 was 0.211 µM.

On to `CSCC[C@H](NC(=O)[C@@H](N)C(C)C)C(=O)N[C@@H](CS)C(=O)N[C@H](C(=O)N[C@@H](Cc1ccc(O)cc1)C(=O)N[C@@H](CO)C(=O)N1CCC[C@H]1C(=O)N1CCC[C@H]1C(=O)N[C@@H](CC(C)C)C(=O)O)[C@@H](C)O` [aa 119–127: VMCYSPPL], for which the IC50 was 11.9 µM.
